# Assay: Selectivity index, ratio of IC50 for PAD2 (unknown origin) to IC50 for PAD4 (unknown origin)
row,Ratio IC50,Structure (SMILES)
1,3.8,N=C(CCl)NCCC[C@H](NC(=O)c1cc2c([nH]c3ccccc32)c(-c2ccccc2)n1)C(=O)NCc1ccccc1
2,1.5,CN(C)c1ccc2cc(C(=O)N[C@@H](CCCNC(=N)CCl)C(=O)NCc3ccccc3)ccc2c1

# — ChEMBL document CHEMBL5506043, “A β-Carboline Derivate PAD4 Inhibitor Reshapes Neutrophil Phenotype and Improves the Tumor Immune Microenvironment against Triple-Negative Breast Cancer” (J Med Chem, 2024)
